# Measured vapor pressure values of organic chemicals

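The OPERA project collected these measurements from public sources as training and test data for property models. A listed value is a point estimate from one report or more. Method, purity and exact conditions of the single measurements are not given. A value may pool stereoisomers or salt forms, and the file does not say which form was measured. Some upstream entries may be estimates or bounds without being marked so.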

Vapor pressures (log10 mmHg) refer to near room temperature, 15 to 30 °C; higher is more volatile.
Cells with "n/a" have no entry in this list.

compound	name	vapor pressure (log10 mmHg)
CC(=O)c1ccc(O)cc1	4-Hydroxyacetophenone	-4.771
CC(C)c1cccc(C(C)CC=O)c1 (stereo unspecified)	beta-Methyl-3-(1-methylethyl)benzenepropanal	-1.98
CN(C)CCOCCN(C)CCOCCN(C)C	N,N,2,8-Tetramethyl-5,11-dioxa-2,8-diazatridecan-13-amine	-1.429
CN(C)c1ccc(N=Nc2ccccc2[N+](=O)[O-])cc1	N,N-Dimethyl-4-[(2-nitrophenyl)diazenyl]aniline	-9
C/C(=C\C1CCCCC1)CC(C)C=O (stereo partly drawn)	n/a	-2.19
COc1ccc([N+](=O)[O-])cc1OCCCCl	2-(3-Chloropropoxy)-1-methoxy-4-nitrobenzene	-5.824
CC(C)c1ccc2sc3ccccc3c(=O)c2c1	2-(Propan-2-yl)-9H-thioxanthen-9-one	-6.494
CC(C)(C)C(=O)CCc1ccc(Cl)cc1	1-(4-Chlorophenyl)-4,4-dimethyl-pentan-3-one	-3.305
CCO[SiH](OCC)OCC	Triethoxysilane	0.839
CCN(CC)CCCN	1,3-Propanediamine, N,N-diethyl-	0.175
CCCCOC(=O)CCCCC(=O)OCCCC	Dibutyl adipate	-3.803
CC1=CCC(C=CC(C)(C)C(C)O)C1(C)C (stereo unspecified)	n/a	-2.201
NCCCn1ccnc1	1H-Imidazole-1-propanamine	-3.046
N#CCCOc1ccccc1	3-Phenoxypropiononitrile	-2.031
CC1(C)CO1	Oxirane, 2,2-dimethyl-	2.464
CNc1ccc(O)cc1	N-Methyl-p-aminophenol	-2.513
C=C1CCOC(c2ccc(O)c(OC)c2)C1 (stereo unspecified)	Phenol, 2-methoxy-4-(tetrahydro-4-methylene-2H-pyran-2-yl)-	-4.578
CC=C1CC2C=CC1C2 (stereo unspecified)	5-Ethylidene-2-norbornene	0.623
COc1ccc(/N=N/c2ccc(/N=N/c3cccc(S(=O)(=O)[O-])c3)cc2OC)cc1.[Na+]	n/a	-13.18
Fc1ccc(C(c2ccc(F)cc2)N2CCNCC2)cc1	1-(Bis(4-fluorophenyl)methyl)piperazine	-4.821
CON=C1COc2ccccc21	3(2H)-Benzofuranone, O-methyloxime	-1.321
OCCCCCCCCCO	1,9-Nonanediol	-4.469
C#CC(C)(C)N	3-Butyn-2-amine, 2-methyl-	1.772
C[C@]12CC[C@@H]3c4ccc(O)cc4CC[C@H]3[C@@H]1CC[C@@H]2O	17beta-Estradiol	-10.65
CC(C)=CCCC(C)CC#N (stereo unspecified)	3,7-Dimethyloct-6-enenitrile	-1.443
CCOC(=O)c1nn(-c2ccc(OC)cc2)c2c1CCN(c1ccc(N3CCCCC3=O)cc1)C2=O	n/a	-5.377
CCN(CC)c1ccc2cc(-c3nc(=O)c4ccccc4[nH]3)c(=O)oc2c1	n/a	-9.462
O=C1C(N(CO)C(=O)NCO)N(CO)C(=O)N1CO (stereo unspecified)	Diazolidinyl urea	-10.2
CC(CC(C)C)=NO	N-(4-Methyl-2-pentanylidene)hydroxylamine	-0.147
C=C(C)C(=O)OC(C)(C)C	tert-Butyl methacrylate	0.745
CC(C)(C)CC(C)(C)SSSC(C)(C)CC(C)(C)C	Bis(2,4,4-trimethyl-2-pentanyl)trisulfane	-3.655
CC(=O)CC(C)(C)C1CCCCC1	4-Cyclohexyl-4-methyl-pentan-2-one	-0.598
CC(C#N)N(CC#N)CC#N (stereo unspecified)	2-[Bis(cyanomethyl)amino]propanenitrile	-6.453
C=C1C2CCC(C)(OCC)C1CCC2(C)C (stereo unspecified)	2-Ethoxy-2,6,6-trimethyl-9-methylenebicyclo[3.3.1]nonane	-1.824
CCCCCCOc1ccc(-c2nc(-c3ccccc3)nc(-c3ccccc3)n2)c(O)c1	2-(4,6-Diphenyl-s-triazin-2-yl)-5-hexyloxyphenol	-11.41
N#CC1(N2CCCCC2)CCN(Cc2ccccc2)CC1	1'-(Phenylmethyl)-(1,4'-bipiperidine)-4'-carbonitrile	-6.745
CC(=O)O[C@]1(C)CC[C@@]23C[C@@H]1C(C)(C)[C@@H]2CC[C@H]3C	Cedryl acetate	-3.305
CC(C)(N)CO.CCCCCCCCCCCCc1ccccc1S(=O)(=O)O	n/a	-9.837
CN(C)CCCNCCCN(C)C	N'-[3-(Dimethylamino)propyl]-N,N-dimethylpropane-1,3-diamine	-0.648

A selection of 3 entries from above:

{"smiles": "CCN(CC)CCCN", "name": "1,3-Propanediamine, N,N-diethyl-", "vapor pressure (log10 mmHg)": "0.175"}
{"smiles": "CC1(C)CO1", "name": "Oxirane, 2,2-dimethyl-", "vapor pressure (log10 mmHg)": "2.464"}
{"smiles": "CCOC(=O)c1nn(-c2ccc(OC)cc2)c2c1CCN(c1ccc(N3CCCCC3=O)cc1)C2=O", "vapor pressure (log10 mmHg)": "-5.377"}

Data: OPERA 2.9 data sets, kmansouri/OPERA on GitHub.